Experimental data reported in patent US20210221866A1, “PROTEASE-RESISTANT LIPIDATED GLP-1 ANALOGS” (MEDIMMUNE LIMITED, priority 2015, published 2021).

By UniProt entry, the sequences of proteins in these tests, tags left out. Where a name states a change or a piece, a line headed by the entry shows the natural chain unless it says otherwise. Residues count along the entry.
UniProt P00761, 9-231: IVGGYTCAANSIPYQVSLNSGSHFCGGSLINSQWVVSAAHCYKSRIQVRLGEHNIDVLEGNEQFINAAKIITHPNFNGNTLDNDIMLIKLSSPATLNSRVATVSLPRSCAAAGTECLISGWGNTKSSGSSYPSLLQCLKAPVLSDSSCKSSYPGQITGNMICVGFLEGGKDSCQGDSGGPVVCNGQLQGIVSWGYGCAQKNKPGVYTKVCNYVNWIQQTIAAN
UniProt P08473: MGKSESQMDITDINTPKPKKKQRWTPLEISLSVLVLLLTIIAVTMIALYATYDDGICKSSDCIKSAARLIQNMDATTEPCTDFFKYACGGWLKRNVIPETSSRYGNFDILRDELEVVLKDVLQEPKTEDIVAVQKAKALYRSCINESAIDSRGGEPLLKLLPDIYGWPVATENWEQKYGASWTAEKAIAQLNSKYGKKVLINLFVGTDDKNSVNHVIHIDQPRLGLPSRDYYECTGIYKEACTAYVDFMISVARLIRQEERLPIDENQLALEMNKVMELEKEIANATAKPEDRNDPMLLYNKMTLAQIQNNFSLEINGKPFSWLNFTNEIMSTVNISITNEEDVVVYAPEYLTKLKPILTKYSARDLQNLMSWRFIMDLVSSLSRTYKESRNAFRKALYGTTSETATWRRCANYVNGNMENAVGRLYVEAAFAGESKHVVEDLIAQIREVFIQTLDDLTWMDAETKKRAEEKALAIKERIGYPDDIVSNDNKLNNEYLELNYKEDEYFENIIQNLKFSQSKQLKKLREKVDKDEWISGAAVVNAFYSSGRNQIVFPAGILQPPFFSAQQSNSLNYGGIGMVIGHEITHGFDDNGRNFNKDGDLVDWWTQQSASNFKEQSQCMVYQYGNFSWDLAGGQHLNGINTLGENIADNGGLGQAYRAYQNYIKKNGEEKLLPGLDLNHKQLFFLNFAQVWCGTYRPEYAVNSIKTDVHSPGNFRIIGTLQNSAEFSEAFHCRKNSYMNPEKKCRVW
UniProt P00791, 60-385: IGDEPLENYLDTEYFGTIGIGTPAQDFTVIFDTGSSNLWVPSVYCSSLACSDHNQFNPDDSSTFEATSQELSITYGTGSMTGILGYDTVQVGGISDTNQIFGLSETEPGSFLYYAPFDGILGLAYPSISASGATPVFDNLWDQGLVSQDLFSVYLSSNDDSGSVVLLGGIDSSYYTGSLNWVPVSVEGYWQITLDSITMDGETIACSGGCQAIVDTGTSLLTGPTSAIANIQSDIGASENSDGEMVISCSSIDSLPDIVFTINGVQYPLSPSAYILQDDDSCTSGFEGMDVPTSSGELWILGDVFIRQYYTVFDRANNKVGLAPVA

Assays:
[1] = Proteolytic resistance to α-chymotrypsin (% remaining intact peptide, RP-HPLC AUC); details: recombinant α-chymotrypsin in assay buffer, pH 7.8
[2] = biological target: porcine pancreatic trypsin (Sus scrofa, UniProt P00761); assay: Proteolytic resistance to trypsin (% remaining intact peptide, RP-HPLC AUC); format: in vitro ADME; details: 37° C., pH 7.8
recombinant Neprilysin = biological target: T1, recombinant Neprilysin (Homo sapiens, UniProt P08473); assay: Proteolytic resistance to neprilysin (% remaining peptide, RP-HPLC AUC); format: in vitro ADME; details: 37° C., pH 8.3, enzyme:peptide ~1:33 for non-lipidated, ~1:2.5 for lipidated peptides
T1 construct: purchased R&D Systems 1182-ZNC-010
Description: Ratio enzyme (units):peptide (moles) ˜1:33. […] Ratio enzyme (units):peptide (moles) ˜1:2.5.

[3] = system: FASSIF/P (Fasted-State Simulated Intestinal Fluid+USP Pancreatin®); assay: Proteolytic resistance to fasted-state simulated intestinal fluid (FASSIF/Pancreatin); format: in vitro ADME; details: t = 0; 37° C.
Method: (§1) A fresh suspension of FASSIF/P (Fasted-State Simulated Intestinal Fluid+USP Pancreatin®) was prepared according to that described by Galia, Nicolaides, Hörter, Lobenberg, Reppas and Dressman: Pharm. Res. 15 (1998) 698-705. The resulting preparation is proteolytically equivalent to ˜375 units/mL (375 kU/L) and was used immediately without storage. Peptides for evaluation (1.0 mg, ˜250 nmoles) were initially dissolved in pre-warmed FASSIF without Pancreatin® (200 μL) to which was added pre-warmed fresh FASSIF/Pancreatin® (100 μL) to initiate potential digestion. Following momentary vortexing of the Eppendorf reaction tube the mixture was incubated at 37° C. in a thermostatic waterbath for the duration of the experiment. 25 μL aliquots of the co-incubated peptide-enzyme mixture were periodically withdrawn (t=0, 5 m, 10 m, 15 m, 30 m, 1 h, 2 h) and quenched immediately by addition to a solution of 10% TFA in 1:1 water/acetonitrile (75 μL) to arrest proteolytic activity.

[4] = system: FASSIF/Pancreatin® activated with 100 μg/mL human enterokinase; assay: Proteolytic resistance to FASSIF/Pancreatin following full zymogen activation with enterokinase; format: in vitro ADME; details: t = 0; 37° C.
Method: as §1, with “Pharm. […] To the” for “Pharm. Res. 15 (1998) 698-705. The”, “preparation was added human enterokinase (100 μg/mL)” for “preparation is proteolytically equivalent”, “to ensure the potential for full zymogen activity of the mixture which” for “to ˜375 units/mL (375 kU/L) and”, “([…])” for “(100 μL)”

[5] = system: recombinant α-chymotrypsin; assay: Proteolytic resistance to α-chymotrypsin (% remaining intact peptide, RP-HPLC AUC); details: t = 0; 37° C., pH 7.8
[6] = biological target: T2, porcine pancreatic pepsin (Sus scrofa, UniProt P00791); assay: Proteolytic resistance to pepsin (% remaining intact peptide, RP-HPLC AUC); format: in vitro ADME; details: 37° C., pH 2.0
T2 construct: purchased Sigma P7012
Method: Pepsin: Lyophilized porcine pancreatic pepsin (Sigma: P7012) was reconstituted to afford a solution of 200 μg/mL (˜500 units/mL) in assay buffer (0.1 M HCl, pH 2.0) to give the enzyme stock solution. […] Ratio enzyme (units):peptide (moles) ˜1:6. […] Ratio enzyme (units):peptide (μmoles) ˜2:1.
Lyophilized porcine pancreatic pepsin (Sigma: P7012) was reconstituted to […] (˜500 units/mL) in assay buffer ([…], pH 2.0) to give the enzyme stock solution.

Question: For `CCCCCCCCCCCC(=O)N[C@@H](CCC(=O)NCCOCCOCC(=O)NCCOCCOCC(=O)NCCCC[C@H](NC(=O)[C@H](C)NC(=O)[C@@H](NC(=O)[C@H](Cc1ccccc1)NC(=O)[C@H](CCC(=O)O)NC(=O)[C@](C)(CCCCN)NC(=O)[C@H](C)NC(=O)[C@H](C)NC(=O)[C@H](CCC(=O)O)NC(=O)CNC(=O)[C@H](CCC(=O)O)NC(=O)[C@H](CC(C)C)NC(=O)[C@H](CCCCNC(=O)COCCOCCNC(=O)COCCOCCNC(=O)CC[C@H](NC(=O)CCCCCCCCCCC)C(=O)O)NC(=O)[C@H](CO)NC(=O)[C@](C)(CO)NC(=O)[C@@H](NC(=O)[C@H](CC(=O)O)NC(=O)[C@H](CO)NC(=O)[C@@H](NC(=O)[C@](C)(Cc1ccccc1)NC(=O)[C@H](CO)NC(=O)CNC(=O)[C@H](CCC(=O)O)NC(=O)C(C)(C)NC(=O)[C@@H](N)Cc1c[nH]cn1)[C@@H](C)O)C(C)C)[C@@H](C)CC)C(=O)N[C@H](C(=O)N[C@H](C(=O)N[C@@H](CCC(=O)O)C(=O)NCC(=O)NCC(N)=O)C(C)C)C(C)C)C(=O)O` [compound 263], which remaining at 2 h [1] is on record?
Answer: 92.2%

Question: For “H-Aib^2-EGTFTSDVSSYLEGQAAK(ε-(PEG)2-(PEG)2-γE-stearate)EFIAWLVRGRG-acid [Semaglutide]”, which “Percentage remaining intact peptide (AUC by RP-HPLC) upon incubation with trypsin” value ([2]; t = 0) is on record?
Answer: 100.0%

Question: And the “Percentage remaining intact peptide (AUC by RP-HPLC) upon incubation with trypsin” value ([2]; t = 30 min)?
Answer: 0.0%

Question: What about the “Percentage remaining intact peptide (AUC by RP-HPLC) upon incubation with trypsin” value ([2]; t = 1 hr) of the same compound?
Answer: 0.0%

Question: And the “Percentage remaining intact peptide (AUC by RP-HPLC) upon incubation with trypsin” value ([2]; t = 2 hr)?
Answer: 0.0%

Question: And the “Percentage remaining intact peptide (AUC by RP-HPLC) upon incubation with trypsin” value ([2]; t = 4 hr)?
Answer: 0.0%

Question: And the “Percentage remaining intact peptide (AUC by RP-HPLC) upon incubation with trypsin” value ([2]; t = 8 hr)?
Answer: 0.0%

Question: What about the “Percentage remaining intact peptide (AUC by RP-HPLC) upon incubation with trypsin” value ([2]; t = 24 hr) of the same compound?
Answer: 0.0%

Question: And the “Percentage remaining peptide (AUC at specified time-point by RP-HPLC) upon incubation with neprilysin, t = 0” value (recombinant Neprilysin; t = 0 (baseline))?
Answer: 100%

Question: And the “Percentage remaining peptide (AUC at specified time-point by RP-HPLC) upon incubation with neprilysin, t = 30 min” value (recombinant Neprilysin; t = 30 min)?
Answer: 93.8%

Question: What about the “Percentage remaining peptide (AUC at specified time-point by RP-HPLC) upon incubation with neprilysin, t = 1 hr” value (recombinant Neprilysin; t = 1 hr) of the same compound?
Answer: 92.2%

Question: What about the “Percentage remaining peptide (AUC at specified time-point by RP-HPLC) upon incubation with neprilysin, t = 2 hr” value (recombinant Neprilysin; t = 2 hr) of the same compound?
Answer: 84.9%

Question: What about the “Percentage remaining peptide (AUC at specified time-point by RP-HPLC) upon incubation with neprilysin, t = 4 hr” value (recombinant Neprilysin; t = 4 hr) of the same compound?
Answer: 78.1%

Question: What about the “Percentage remaining peptide (AUC at specified time-point by RP-HPLC) upon incubation with neprilysin, t = 8 hr” value (recombinant Neprilysin; t = 8 hr) of the same compound?
Answer: 61.3%

Question: What about the “Percentage remaining peptide (AUC at specified time-point by RP-HPLC) upon incubation with neprilysin, t = 24 hr” value (recombinant Neprilysin; t = 24 hr) of the same compound?
Answer: 29.8%

Question: What about the “Percentage remaining intact peptide (AUC by RP-HPLC) upon incubation with fasted-state simulated intestinal fluid (FASSIF/P)” value [3] of the same compound?
Answer: 100%

Question: And the “Percentage remaining intact peptide (AUC by RP-HPLC) upon incubation with FASSIF activated with 100 μg/mL enterokinase” value [4]?
Answer: 100%

Question: And the “Percentage remaining intact peptide (AUC by RP-HPLC) upon incubation with α-chymotrypsin” value [5]?
Answer: 100%

Question: And the “Percentage remaining intact peptide (AUC by RP-HPLC) upon incubation with pepsin” value ([6]; t = 0)?
Answer: 100%

Question: What about the “Percentage remaining intact peptide (AUC by RP-HPLC) upon incubation with pepsin” value ([6]; t = 30 min) of the same compound?
Answer: 10.4%

Question: And the “Percentage remaining intact peptide (AUC by RP-HPLC) upon incubation with pepsin” value ([6]; t = 1 hr)?
Answer: 0.0%

Question: And the “Percentage remaining intact peptide (AUC by RP-HPLC) upon incubation with pepsin” value ([6]; t = 2 hr)?
Answer: 0.0%

Question: What about the “Percentage remaining intact peptide (AUC by RP-HPLC) upon incubation with pepsin” value ([6]; t = 4 hr) of the same compound?
Answer: 0.0%

Question: What about the “Percentage remaining intact peptide (AUC by RP-HPLC) upon incubation with pepsin” value ([6]; t = 8 hr) of the same compound?
Answer: 0.0%

Question: And the “Percentage remaining intact peptide (AUC by RP-HPLC) upon incubation with pepsin” value ([6]; t = 24 hr)?
Answer: 0.0%
